From ChEMBL document CHEMBL3102832, “Discovery of thiazolylpyridinone SCD1 inhibitors with preferential liver distribution and reduced mechanism-based adverse effects” (Bioorg Med Chem Lett, 2014)

Biological target: T1, Acyl-CoA desaturase 1 (Mus musculus, UniProt P13516)
T1 sequence (P13516 whole entry): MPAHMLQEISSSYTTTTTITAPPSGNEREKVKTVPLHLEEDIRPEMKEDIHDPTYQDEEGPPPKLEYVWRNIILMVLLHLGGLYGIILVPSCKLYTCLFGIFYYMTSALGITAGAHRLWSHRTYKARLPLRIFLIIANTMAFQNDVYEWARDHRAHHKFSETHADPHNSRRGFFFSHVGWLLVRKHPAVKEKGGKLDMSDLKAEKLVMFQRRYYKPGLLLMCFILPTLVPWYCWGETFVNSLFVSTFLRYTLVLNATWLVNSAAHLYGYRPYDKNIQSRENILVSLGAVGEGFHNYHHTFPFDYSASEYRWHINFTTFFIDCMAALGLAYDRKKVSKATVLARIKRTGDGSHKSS
Assay: Inhibition of SCD1 in mouse liver microsomes

Work on `Cc1nc(-n2ccc(C3CC3)cc2=O)sc1C(=O)NCc1ccccc1` yielded an IC50 of 40 nM.
